The source of these data is patent US10294218B2 (VIROSTATICS SRL, priority 2012, dated 2019).

The assay has as its system Primary T cells. Briefly: Antiproliferative activity (AP), mitotic index by flow cytometry. It counts as cell-based. As to conditions: T-cell, read-out: AP50 (Inhibitory concentration 50% for antiproliferative capacity). A general note: Flow cytometry measures light scatter and fluorescence of single cells or particles in a stream.

For the compound `COc1ccc(Nc2cc(-c3ccccc3OC)ncn2)cc1CN(C)C` [Example 35, N-(3-((Dimethylamino)methyl)-4-methoxyphenyl)-6-(2-methoxyphenyl)pyrimidin-4-amine], the IC50 stood at 2200 nM.
